The source of these data is PubChem BioAssay AID886 (National Center for Advancing Translational Sciences (NCATS), 2007).

The chains behind the UniProt entries cited, without tags or fusion partners.
UniProt Q99714, whole entry: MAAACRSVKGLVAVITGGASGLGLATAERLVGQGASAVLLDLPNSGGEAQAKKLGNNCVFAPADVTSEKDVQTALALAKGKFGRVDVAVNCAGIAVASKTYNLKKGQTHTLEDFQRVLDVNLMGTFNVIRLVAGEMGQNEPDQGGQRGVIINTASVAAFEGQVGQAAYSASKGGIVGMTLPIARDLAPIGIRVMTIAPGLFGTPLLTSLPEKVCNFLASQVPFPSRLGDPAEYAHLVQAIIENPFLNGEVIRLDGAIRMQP

Only a part is listed here, and it is no random draw. Some of these compounds have results that are not shown, active ones among them. Inconclusive results are not listed. Activity calls are given as the source filed them. The call rests on the fitted dose curve; in most records, active means well fitted inhibition curve with a large enough effect; inconclusive means small, poorly fitted or top-dose-only effect; inactive means no such curve, though single readings can be large or run the other way.
On the % scale 0 is the no-effect control and ±100 the full control effect.

For this test, the target named is 3-hydroxyacyl-CoA dehydrogenase type-2 (Homo sapiens) (UniProt Q99714). Description: qHTS Assay for Inhibitors of HADH2 (Hydroxyacyl-Coenzyme A Dehydrogenase, Type II). Further: nearly all actives have a fitted effect of over 60% in size. The note with it: recombinant HADH2, NADH fluorescence, beta-hydroxybutyryl-CoA; at 11.4 µM (top of the series) unless noted. Background: qHTS replaces the single test concentration by a dilution series.
`CN(C)c1cccc(C(=O)NCC2(N(C)C)CCCCC2)c1`: the activity change, negative = inhibition is inactive: -6.36% [at 57.1 µM].

Take `CN1CCC[C@H](OC(=O)[C@](O)(c2ccccc2)C2CCCC2)C1`: the activity change, negative = inhibition was inactive: 9.3%.

Turning to `O=C(OC1CN2CCC1CC2)C(CO)(c1ccccc1)c1ccccc1` (stereo not given), the activity change, negative = inhibition is inactive: 0.813% [at 57.1 µM].

`CN1CC[C@H](OC(=O)[C@](O)(c2ccccc2)C2CCCC2)C1`: the activity change, negative = inhibition was inactive: 10.1%.

With `C=C(C)C#C[C@@](O)(C(=O)OC1CCN(C)CC1)c1ccccc1`, the activity change, negative = inhibition was inactive: 12%.
